Data taken from patent US20250002435A1, “ARYLATED FENCHONE DERIVATIVES, COMPOSITIONS COMPRISING THEM, PROCESSES FOR THEIR PREPARATION AND USES THEREOF” (priority 2021, published 2025).
pEC50: −log10 of the molar value. Read-outs that look alike come from different tables or passages of the source.

By UniProt entry, the sequences of proteins in these tests, tags left out.
UniProt P34972, whole entry: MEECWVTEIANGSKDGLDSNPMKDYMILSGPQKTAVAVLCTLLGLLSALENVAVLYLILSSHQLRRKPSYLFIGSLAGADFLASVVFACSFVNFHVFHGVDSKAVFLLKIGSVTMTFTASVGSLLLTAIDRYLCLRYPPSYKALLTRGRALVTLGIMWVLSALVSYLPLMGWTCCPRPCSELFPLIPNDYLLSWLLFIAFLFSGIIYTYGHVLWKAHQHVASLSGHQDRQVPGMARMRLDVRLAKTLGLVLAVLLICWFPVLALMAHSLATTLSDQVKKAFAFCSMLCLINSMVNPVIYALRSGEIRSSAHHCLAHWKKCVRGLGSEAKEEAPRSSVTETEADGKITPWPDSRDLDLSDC

Key:
hCB2R [1] = target: T1, hCB2R (Homo sapiens (Human), UniProt P34972); assay: [35S]GTPγS binding assay, hCB2R CHO cell membranes; assay type: biochemical; details: [35S]GTPγS binding to hCB2R; two independent experiments in triplicate
Procedure: Functional Characterization.
The method used for measuring agonist-stimulated binding of [^35S]GTPγS was based on a described protocol. The assays were carried out with GTPγS assay buffer (50 mM Tris HCl (pH 7.4), 0.2 mM EGTA, 9 mM MgCl2, 150 mM NaCl, 1 mg/ml BSA). Briefly, membranes (5 μg protein) were incubated in assay buffer containing 100 μM GDP, 0.05 nM [^35S]GTPγS, test compounds at various concentrations in siliconized glass tubes. Bound ligand was separated from free ligand by vacuum filtration. Nonspecific binding was determined using 10 μM GTPS. Basal binding was assayed in the absence of the ligand and in the presence of GDP.

hCB2R [2] = target: T1, hCB2R; assay: [3H]CP-55,940 competition displacement binding, membranes of CHO-K1 cells expressing human CB2R
Procedure: Affinity for Cannabinoid Receptors. The compounds were further characterized using a radioligand binding assay to determine their affinities for CB1R and CB2R based on each test compound's ability to displace the radiolabeled CB1R/CB2R agonist CP-55,940 from membranes prepared from a mouse brain (a source of CB1R) and membranes of cells expressing the human CB2R. […] Therefore, the compounds were assayed using membranes from CHO-K1 cells expressing the human CB2R (hCB2R).
Membranes from cells expressing human CB2R were purchased from Charles River, (Cat #A308; Ohio, US). Solutions of test compounds ranging from 0.1 nM to 10 mM were prepared in DMSO. The desired amount of membrane preparation was diluted with ice-cold assay buffer (50 mM Tris-HCl, 2.5 mM EDTA, 5 mM MgCl2, 0.1% BSA, pH 7.4) and was vortexed. […] The assays were incubated for 90 minutes at 30° C. and then immediately filtered on WHATMAN GF/B FilterPaper (Fired) using a Brandel M-24R Harvester followed by six washes with ice cold wash buffer (50 mM Tris-HCl, 2.5 mM EDTA, 5 mM MgCl2, 0.1% BSA, pH 7.4). Radioactivity was detected by adding the FilterPaper directly to the ULTIMA GOLD scintillation cocktail (PerkinElmer), incubation at 20° C. for 60 min and then counted using a Tri-Carb 4910TR liquid scintillation counter.

Row | Structure (SMILES) | pEC50 (hCB2R [1]) | Ki (hCB2R [2]; displacement of [3H]CP-55,940) [nM] | Ki (hCB2R [2]) [nM]
1 | CCCCCCC(C)(C)c1cc(OC)c([C@@H]2C=C(CO)[C@@H]3C[C@H]2C3(C)C)c(OC)c1 [HU-308, reference compound] | 9.00 | 1.16 | 
2 | CCCCCCCCc1ccc(OC)c(C2(O)C3(C)CCC(C3)C2(C)C)c1 (single isomer, unassigned) [Compound 3h, 2-(2′-methoxy-5′-octylphenyl)-1,3,3-trimethylbicyclo[2.2.1]heptan-2-ol] |  |  | 494
3 | CCCCCCCCc1ccc(OC)c(C2(O)C3(C)CCC(C3)C2(C)C)c1 (single isomer, unassigned) [Compound 3g, 2-(2′-methoxy-5′-octylphenyl)-1,3,3-trimethylbicyclo[2.2.1]heptan-2-ol] |  | 1650 | 
